# Source: patent publication US6583179B2, “Substituted aminoalkylamide derivatives as antagonists of follicle stimulating hormone” (Ortho-McNeil Pharmaceutical, Inc., priority 1999, dated 2003)
# The chains behind the UniProt entries cited, without tags or fusion partners. Residues count along the entry.
# UniProt P23945, 18-695 limits assumed: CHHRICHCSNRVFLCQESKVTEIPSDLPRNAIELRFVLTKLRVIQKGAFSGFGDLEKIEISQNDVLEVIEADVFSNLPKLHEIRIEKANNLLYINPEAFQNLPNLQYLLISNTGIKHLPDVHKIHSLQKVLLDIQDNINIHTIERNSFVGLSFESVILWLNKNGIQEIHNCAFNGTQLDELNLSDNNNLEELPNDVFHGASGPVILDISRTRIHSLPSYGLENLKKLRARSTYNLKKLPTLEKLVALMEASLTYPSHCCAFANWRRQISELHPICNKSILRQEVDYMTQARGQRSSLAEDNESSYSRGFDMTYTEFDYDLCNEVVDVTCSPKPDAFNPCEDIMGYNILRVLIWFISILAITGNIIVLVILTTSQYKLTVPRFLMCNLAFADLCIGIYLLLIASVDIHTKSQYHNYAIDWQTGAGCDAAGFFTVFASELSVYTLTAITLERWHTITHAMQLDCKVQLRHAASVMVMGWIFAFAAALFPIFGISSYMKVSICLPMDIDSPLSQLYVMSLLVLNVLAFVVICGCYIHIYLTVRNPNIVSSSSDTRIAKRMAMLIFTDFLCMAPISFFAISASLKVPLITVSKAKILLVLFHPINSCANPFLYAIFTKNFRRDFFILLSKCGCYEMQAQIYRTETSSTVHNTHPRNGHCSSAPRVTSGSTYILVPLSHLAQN
# What was measured:
# [1] = target: human FSH receptor (Homo sapiens, UniProt P23945); assay: hFSHR CHO cAMP assay (rhFSHR-cLUC cells, FSH-stimulated cAMP, radioimmunoassay); settings: read-out: EC50 hFSHR CHO cAMP; inhibition of cAMP produced by EC70 dose of FSH (4.85 nM); maximum concentration 50 μM
# [2] = tested on: Rat Granulosa Cell; assay: Rat granulosa cell FSH-stimulated cAMP production; settings: read-out: Rat Granulosa Cell EC50 cAMP; inhibition of cAMP produced by EC70 dose of FSH (1.4 nM); maximum concentration 50 μM
# Description: Insulin, diethylstilbesterol, androstenedione, forskolin and DMSO were purchased from Sigma (St. Louis, Mo.). Fungizone, penicillin/streptomycin, charcoal-treated heat inactivated fetal bovine serum (CT-HI-FBS) and Dulbecco's Modified Eagle Medium:Hams F12 medium containing 15 mM Hepes and L-glutamine (DMEM:F12), were purchased from GIBCO BRL (Grand Island, N.Y.).
# Ovine FSH (NIADDK-oFSH-17; FSH potency=20 NIH-FSH-S1 U/mg; LH contamination=0.04 times NIH-LH-S1) was received from Ogden Bioservices Corporation, Rockville, Md. Human FSH (Fertinex), was purchased from Serono Pharmaceutical (Framingham, Mass.). Human chorionic gonadotropin (hCG) was purchased from Sigma (St Louis, Mo.).
# Immature intact female rats (Wistar-derived strain; 21-23 days old) were implanted with a single pellet (Innovative Research of America, Sarasota, Fla.) containing 2.5 mg diethylstilbesterol (DES) for 3 days. On the third day, the animals were sacrificed, the ovaries were removed, and the granulosa cells were isolated essentially as described in Haynes-Johnson et al., Biol. Reprod., 61 (1), 147-153, (1999). Granulosa cells were plated at a density of 300,000 cells per ml with 0.2 ml added to each well of 96 well culture dishes (Corning, N.Y.). Cultures were incubated at 37° C. in a humidified incubator (95% air, 5% CO2) overnight (18 hours).
# Androstenedione (100,000X) was prepared by dissolving the steroid in 100% ethanol, and was subsequently diluted to a final concentration of 10^−7M containing 0.1% ethanol in assay media. The assay media was serum-free, DES-free, insulin-free media, prepared by adding 5 mL pen-strep,1.5 mL fungizone and 5 μL androstenedione to 493.5 mL DMEM F-12 media.
# Test compounds were solubilized in 30% dimethyl sulfoxide (DMSO) at a concentration of 10 mM before diluting to appropriate concentrations in assay medium. The final DMSO concentration in the treated cells and in the control cells was 0.75%.
# Test plates containing the granulosa cells were preincubated for 18 hours at 37° C. with 95% air, 5% CO2, 100% humidity. The spent media was removed and 50 μl assay media (DMEM:F12) containing 2 mM IBMX (3-isobutyl-1-methyl-xanthine) was added to the cells. Compounds (25 μl) in the appropriate concentration were added followed 5 minutes later by an EC70 dose of FSH (25 μl; 50 ng/ml; 1.4 nM). After 30 minutes @ 22.5° C. (room temperature) the reaction was terminated by addition of 25 μL 0.5 N hydrochloric acid to each well. The amount of cAMP produced was measured by radioimmunoassay in a FlashPlate (DuPont, Boston, Mass.). To each flash plate 60 μL flash plate buffer was added followed by 40 μL acidified cell sample or cAMP standard, followed with the addition of 100 μl ^125l-cAMP trace. The FlashPlates were sealed, incubated overnight @ room temperature, and counted in a Packard TopCount (Packard Instrument Co., Meriden, Conn.). The cAMP radioimmunoassay results were calculated using DPM conversion and log-logit transformation of % binding (Excel program).
Structure (SMILES),EC50 [1] [µM],EC50 [2] [µM]
COc1ccc(OC)c(S(=O)(=O)N(CC(=O)NCC2CCC(CN)CC2)Cc2ccccc2OC)c1 (stereo not drawn),40,29.4
COc1ccccc1CN(CC(=O)NCC1CCC(CN)CC1)S(=O)(=O)c1ccc(-c2cc(C(F)(F)F)cc(C(F)(F)F)c2)cc1 (stereo not drawn),1.81,0.83
COc1ccccc1CCN(CC(=O)NCC1CCC(CN)CC1)S(=O)(=O)c1ccc(-c2ccccc2)cc1 (stereo not drawn),0.83,0.2
COc1ccccc1CCN(CC(=O)NCc1ccc(CN)cc1)S(=O)(=O)c1cccc(C(F)(F)F)c1,2.92,1.02
COc1ccccc1CN(CC(=O)NCC1CCC(CN)CC1)S(=O)(=O)c1cccc(Cl)c1 (stereo not drawn),9.88,0.88
COc1ccccc1CCN(CC(=O)NCC1CCC(CN)CC1)S(=O)(=O)c1ccc(-c2cccc([N+](=O)[O-])c2)cc1 (stereo not drawn),1.33,0.49
COc1ccccc1CN(CC(=O)NCC1CCC(CN)CC1)S(=O)(=O)c1ccc(-c2cccc(C(F)(F)F)c2)cc1 (stereo not drawn),0.93,0.34
COc1ccccc1CN(CC(=O)NCC1CCC(CN)CC1)S(=O)(=O)c1ccc(-c2ccccc2OC)cc1 (stereo not drawn),0.96,0.27
COc1ccccc1CN(CC(=O)NCC1CCC(CN)CC1)S(=O)(=O)c1cccc2ccccc12 (stereo not drawn),19.5,1.92
COc1ccccc1CN(CC(=O)NCC1CCC(CN)CC1)S(=O)(=O)c1ccc(-c2ccc(Cl)cc2)cc1 (stereo not drawn),1.16,2.42
COc1ccccc1CN(CC(=O)NCC1CCC(CN)CC1)S(=O)(=O)c1ccc(-c2ccc(Cl)cc2Cl)cc1 (stereo not drawn),1.59,0.29
COc1ccccc1CCN(CC(=O)N[C@H]1CC[C@H](N)CC1)S(=O)(=O)c1ccc(-c2ccc(N)cc2)cc1,16.7,0.6
